{
  "source": "paper PMC10958470",
  "about": "(Virus Research, 2024)",
  "molecular_target": "SARS-CoV-2 helicase (nsp13) (Severe acute respiratory syndrome coronavirus 2, UniProt P0DTD1)",
  "test": "biochemical",
  "type": "biochemical",
  "data": [
    {"molecule": "CC1(C)C(/C=C/C=C/C=C/C=C2\\N(CCCCS(=O)(=O)O)c3ccc4ccccc4c3C2(C)C)=[N+](CCCCS(=O)(=O)[O-])c2ccc3ccccc3c21", "note": "[cardiogreen]", "values": [
      {"measurement": "Helicase Inhibition [%] 20 µM (PS Inhibition Helicase [%])", "value": 100.64, "unit": "%"}
    ]},
    {"molecule": "Cc1c(Cl)c(C)[n+]([O-])c(Cl)c1-c1noc(-c2cc(O)c(O)c([N+](=O)[O-])c2)n1", "note": "[opicapone]", "values": [
      {"measurement": "inhibition at 20 µM", "setting": "read-out: Helicase Inhibition [%] 20 µM (PS Inhibition Helicase [%])", "value": 93.6, "unit": "%"}
    ]}
  ]
}
